Values joined by “and” are separate entries in the source; they are usually repeats but may differ in a detail not shown here. Equal entries are not always repeated. The entries are a selection whose mix differs from that of the whole data set. Some results for these compounds are left out of this collection, so the calls shown say nothing about other tests.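 For each line, cells grew in 96-well plates with the test compound present at a single concentration for 48 hours.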 Active and inactive are the calls of the source. Rule for the calls: active = growth percent below 10; inactive = the rest.

The test deals with MALME-3M melanoma. Briefly: NCI-60 one-dose screen, 48 h (100 = growth as untreated, 0 = no growth, -100 = all killed). Conditions: 10 µM.
Turning to `N#CC(C#N)=Cc1cccc(Br)c1`, the growth is inactive: 115%.

As to `ClCCN(CCCl)Cc1ccc(Cl)c(Cl)c1`, the growth is inactive: 99.1%.

Take `CCCN(CCCl)CCCl`: the growth was inactive: 111%.

Take `ClCCN(CCCl)C1CCCCC1`: the growth was inactive: 99.5%.

In the case of `BrCCN(CCBr)Cc1ccccc1`, the growth is inactive: 112%.

For the molecule `N#CC(C#N)=Cc1ccc(Br)cc1`, the growth was inactive: 112% and inactive: 98.8%.

In the case of `Cc1cc2nc(CN(CCCl)CCCl)[nH]c2cc1C`, the growth is inactive: 96.8%.

As for `COc1ccc(N=C=S)cc1CN(CCCl)CCCl`, the growth is inactive: 93.4%.

On to `CCNCCCl`, for which the growth is inactive: 122%.

With `N#CC(C#N)=Cc1ccccc1Cl`, the growth is inactive: 91.6%.

For the molecule `CC[N+](C)(C)Cc1cccc(Cc2ccccc2)c1OC(=O)N(C)C`, the growth was inactive: 103%.

As for `COCc1c(CN(CCCl)CCCl)cnc(C)c1O`, the growth was inactive: 98.1%.

In the case of `ClCCN(CCCl)C1c2ccccc2-c2ccccc21`, the growth is inactive: 101%.

For `CN(CCBr)CCBr`, the growth was inactive: 118%.

Regarding `CCOc1ccc([N+](=O)[O-])cc1CN(CCCl)CCCl`, the growth was inactive: 91.8%.

Take `ClCCCCCC(CCl)NCCCl` (stereo unspecified): the growth was inactive: 93.3%.

`COc1ccc([N+](=O)[O-])cc1CN(CCCl)CCCl`: the growth was inactive: 109%.

As for `CC(C)(C)N(CCCl)CCCl`, the growth is inactive: 107%.

Take `ClCCN(CCCl)Cc1cc(Cl)cc(Cl)c1`: the growth was inactive: 77.4%.

Consider `CN(C)CCOC(=O)C(O)(c1ccccc1)c1ccccc1`, for which the growth was inactive: 82.1%.

On to `Fc1cccc(CN(CCCl)CCCl)c1`, for which the growth was inactive: 85.8%.

The values are drawn from PubChem BioAssay (NCI).
